TDP1 cell noCPT: qHTS for Inhibitors of human tyrosyl-DNA phosphodiesterase 1 (TDP1): qHTS in cells in absence of CPT; DT40 Tdp1-/- hTDP1 cells, no CPT, ATP luminescence, 48 h; Potency, µM (highest dose often 46.2 µM), inactives show at the highest dose activity change, negative = growth inhibition, most hits filed as inhibitors; hit rate 15% among 420,000; also: potency is read from the fitted curve at half-maximal effect; % is scaled to controls: 0 for no effect and ±100 for the full control effect; nearly all actives have a fitted effect of over 55% in size
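Compound effects on proliferation are scored in DT40 Tdp1-/-;hTDP1 cells in the absence of CPT. ATP levels (CellTiter-Glo luminescence) are recorded after a ≥48 hr, 37 °C incubation.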
miR-21 reporter: miR-21 reporter, rising signal; HeLa miR-21 FLuc reporter, luciferase, 48 h; Potency, µM (highest dose often 38.3 µM), for the others: top-dose reporter change, positive = more light; 340,000 tested, under 10 active; AID 2288; active = well fitted rising curve with a large enough effect; inconclusive = small, poorly fitted or top-dose-only effect; inactive = no such curve, though single readings can be large or run the other way;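 further: % of control where 0% means no effect; miR-21 action dims this reporter so a rising signal means less miR-21 action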
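HeLa cells endogenously expressing miR-21, stably carrying CMV-driven firefly luciferase with a downstream miR-21 binding site, 2000 cells/well. Titrations up to approximately 40 uM, 48 hours; luciferase luminescence read.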
TDP1 cell CPT: DT40-hTDP1 cell growth loss with CPT; chicken DT40 Tdp1-/-;hTDP1 cells + 20 nM CPT, ATP luminescence, 48 h; Potency, µM (titrated, usually from 46.2 µM), for inactives: at the highest dose activity change, negative = growth inhibition, hits mostly inhibitors; hit rate 12% among 420,000; AID 686979; also: potency is read from the fitted curve at half-maximal effect; % is scaled to controls: 0 for no effect and ±100 for the full control effect; nearly all actives have a fitted effect of over 55% in size
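Chicken DT40 Tdp1-/- cells stably complemented with human TDP1 were seeded at 400 cells/well in medium containing 20 nM camptothecin, exposed to pin-transferred compounds, and grown at 37 °C for at least 48 hr. Viability was read as ATP luminescence.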
TDP1 inh: inhibitors of human tyrosyl-DNA phosphodiesterase TDP1; hit rate 0.28% among 350,000; recombinant TDP1, AlphaScreen DNA substrate cleavage; Q9NUW8; Potency, µM (series often up to 130 µM), without a hit: top-dose activity change, negative = inhibition, most hits filed as inhibitors; also: potency is read from the fitted curve at half-maximal effect; % is scaled to controls: 0 for no effect and ±100 for the full control effect; nearly all actives have a fitted effect of over 40% in size
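Signal: AlphaScreen proximity between streptavidin donor and anti-FITC acceptor beads on intact substrate. Reaction: Tdp1 1 nM, substrate 15 nM final, 5 min RT after 15 min compound preincubation.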
uPA generation: cell surface uPA generation inhibition | cell surface uPA generation assay, qHTS | Potency, µM (doses to about 38.3 µM), for inactives: at the top dose activity change, negative = inhibition, actives largely listed as inhibitors | hit rate 0.31% among 330,000; active = well fitted inhibition curve with a large enough effect; inconclusive = small, poorly fitted or top-dose-only effect; inactive = no such curve, though single readings can be large or run the other way; tested in mouse RAW 264.7 cells; also: potency is read from the fitted curve at half-maximal effect; % is scaled to controls: 0 for no effect and ±100 for the full control effect; nearly all actives have a fitted effect of over 55% in size
An asterisk follows results filed as active; ? = inconclusive; / = no result given; [ ] = dose if it differs, or a comment. Shown are actives, neighbours in structure and some others; about 16% of the full set was active somewhere. Unless noted, calls follow the shape of the dose curve; as a rule, active = well fitted curve in the direction sought with a large enough effect; inconclusive = small, poorly fitted or top-dose-only effect, or another doubt; inactive = no such curve, though single readings can be large; an effect the other way counts as inactive or inconclusive.

Labels used below: A = TDP1 cell noCPT; B = miR-21 reporter; C = TDP1 cell CPT; D = TDP1 inh; E = uPA generation
Structure: Nc1c(C(=O)Nc2cccc(Cl)c2)sc2nc3c(cc12)CN(Cc1ccccc1)CC3
  A = 14.6µM*	B = -0.8%	C = 7.31µM*	D = 11.6%	E = /
Structure: COc1ccc(NC(=O)c2sc3nc4c(cc3c2N)CN(C(C)C)CC4)c(OC)c1
  A = ?	B = 21.9%	C = 23.1µM*	D = 6.9%	E = /
Structure: CSCC[C@H](NC(=O)[C@@H]1CCCN1C(=O)CNC(=O)[C@H](CCCCN)NC(=O)[C@H](Cc1cnc[nH]1)NC(=O)[C@H](CO)NC(=O)[C@H](CC(C)C)NC(=O)[C@H](CCCNC(=N)N)NC(=O)[C@@H]1CCCN1C(=O)[C@H](CCCNC(=N)N)NC(=O)[C@H](CCC(N)=O)NC(=O)[C@H](CCCNC(=N)N)NC(=O)[C@H](CCCNC(=N)N)NC(=O)[C@H](Cc1ccccc1)NC(=O)[C@@H](N)CCCCN)C(=O)N1CCC[C@H]1C(=O)N[C@@H](Cc1ccccc1)C(=O)O
  A = /	B = /	C = /	D = 12.8%	E = /
Structure: CN(C)/C=C1\N=C(c2ccc3c(c2)OCO3)OC1=O
  A = ?	B = -40.8%	C = -10.3%	D = 3.2%	E = 4.3%
Structure: COc1ccc(-c2noc(-c3cccnc3NCc3ccco3)n2)cc1
  A = ?	B = -3.2%	C = -20.5%	D = 8.6%	E = /
Structure: CN1CCc2nc3sc(C(=O)Nc4cccc(C#N)c4)c(N)c3cc2C1
  A = 8.2µM*	B = -39.6%	C = 20.6µM*	D = -7.1%	E = /
Structure: CCOc1ccccc1CN1CCCC(c2nc(C)ncc2-c2ccc(F)cc2)C1 (stereo not given)
  A = 18.4µM*	B = /	C = ?	D = /	E = /
Structure: COc1ccc(CN2CCCC(C(=O)N3CCCC3)C2)c(OC)c1OC (stereo not given)
  A = -7.1%	B = /	C = -29.6%	D = /	E = /
Structure: COc1ccc(OC)c(CN2CCCC(c3nc(C)ncc3-c3ccc(F)cc3)C2)c1 (stereo not given)
  A = ?	B = /	C = 20.6µM*	D = /	E = /
Structure: COc1ccc(CN2CCCC(c3nc(C)ncc3-c3ccc(F)cc3)C2)c(OC)c1OC (stereo not given)
  A = ?	B = /	C = 11.6µM*	D = /	E = /
Structure: CN(C)c1nc(Cl)nc2c1nc(Cl)n2C1CCCCO1 (stereo not given)
  A = -19.3%	B = /	C = 2.8%	D = /	E = 3.9%
Structure: COc1ccc(S(=O)(=O)N2CN(Cc3ccco3)c3nc4ccccc4nc32)cc1
  A = ?	B = -3.2%	C = ?	D = 6.8%	E = /
Structure: O=c1c(Cc2ccccc2)c(O)nc2n1CCS2
  A = 0.2%	B = -1.0%	C = -10.5%	D = 2.0%	E = 1.9%
Structure: COc1cc(C2CC(=O)Oc3cc(C)c(Br)c(C)c32)cc(OC)c1OC (stereo not given)
  A = ?	B = /	C = 20.6µM*	D = -0.8%[56.1 µM]	E = 5.5%
Structure: CSC(=NNC(=O)c1ccccc1O)SC
  A = ?	B = -11.4%	C = -17.3%	D = 3.5%	E = 0.3%
Structure: C/C=C/c1ccc(OCCCCN(C)Cc2ccccc2)c(OC)c1
  A = ?	B = 3.8%	C = ?	D = /	E = -6.7%
Structure: Cc1ccc(C2NC(=O)c3n[nH]c(-c4cccs4)c32)cc1 (stereo not given)
  A = 18.4µM*	B = -12.2%	C = ?	D = 4.7%	E = /
Structure: COC(=O)C1=C(C)N(Cc2ccccc2)C(=NCc2cccc(C(F)(F)F)c2)N[C@H]1c1cccc(C(F)(F)F)c1
  A = 3.66µM*	B = 0.4%	C = 3.26µM*	D = -0.1%	E = -0.1%
Structure: COCCN1C(=O)N[C@H](c2cccc(C(F)(F)F)c2)C(C(=O)OC)=C1C
  A = /	B = -1.2%	C = /	D = 6.9%	E = /
Structure: COC(=O)C1=C(C)N(CC2CC2)C(=NCc2cccc(C(F)(F)F)c2)N[C@H]1c1ccccc1
  A = 11.6µM*	B = 1.5%	C = 10.3µM*	D = 0.0%	E = -5.8%
Structure: CCN1C(=NCCc2ccccn2)N[C@@H](c2cccc(F)c2)C(C(=O)OC)=C1C
  A = ?	B = 0.9%	C = -21.9%	D = /	E = -7.3%
Structure: CCN1C(=NCCc2c[nH]c3ccccc23)N[C@@H](c2ccccc2)C(C(=O)OC)=C1C
  A = /	B = 14.6%	C = /	D = /	E = /
Structure: COC(=O)C1=C(C)N(Cc2ccccc2)C(=NCCc2c[nH]c3ccccc23)N[C@H]1c1cccc(C(F)(F)F)c1
  A = 16.4µM*	B = ?	C = ?	D = 8.0%	E = -25.7%
Structure: COC(=O)C1=C(C)N(Cc2ccccc2)C(=NCCc2ccccn2)N[C@H]1c1cccc(F)c1
  A = ?	B = 18.5%	C = 16.4µM*	D = /	E = -26.8%

3 entries from above, field by field.
COC(=O)C1=C(C)N(Cc2ccccc2)C(=NCc2cccc(C(F)(F)F)c2)N[C@H]1c1cccc(C(F)(F)F)c1
  TDP1 cell noCPT: 3.66µM*
  miR-21 reporter: 0.4%
  TDP1 cell CPT: 3.26µM*
  TDP1 inh: -0.1%
  uPA generation: -0.1%
CCN1C(=NCCc2ccccn2)N[C@@H](c2cccc(F)c2)C(C(=O)OC)=C1C
  TDP1 cell noCPT: ?
  miR-21 reporter: 0.9%
  TDP1 cell CPT: -21.9%
  TDP1 inh: /
  uPA generation: -7.3%
Cc1ccc(C2NC(=O)c3n[nH]c(-c4cccs4)c32)cc1 (stereo not given)
  TDP1 cell noCPT: 18.4µM*
  miR-21 reporter: -12.2%
  TDP1 cell CPT: ?
  TDP1 inh: 4.7%
  uPA generation: /

From PubChem BioAssay
